These results are taken from PubChem BioAssay AID652025 (National Center for Advancing Translational Sciences (NCATS), 2013).

The list shows a part of the results, in another mix than the full data. Some salts or complexes appear as unconnected parts, following the source record. Calls of active or inactive are those of the source. Cut-off read from the data, not from the text of the source: active = activation above about 50%; inconclusive = mostly about 30% to 49%; inactive = weaker than that.

A short description of this assay: qHTS of IL-2 Activators. Note: 0% is about no effect. Particulars: IL-2 activation reporter assay, cell-based qHTS; hits give high values; in transgenic mouse T cells; stimulated with anti-CD3/CD4/CD28 beads. The text has this:
The adaptive immune response against any infectious agent begins with the activation of an antigen specific T cell. This relatively rare and inert ("naive") T cell undergoes a massive proliferative expansion and differentiation process to generate sufficient number of potent pathogen-specific effector T cells. The effector T cells fight the infection by making cytokines and helping other cells to become fully armed as well. If any naive T cell has antigen receptors (TCRs) that can be activated by self peptides, then a variety of regulatory mechanisms kick in to prevent this cell from performing to its full potential. These processes collectively constitute the phenomenon of immunological tolerance and their failure leads to autoimmunity. One arm of tolerance involves generation of biochemical negative feedback downstream of the TCR (tuning). This is especially relevant to self antigens present in the body over long periods of time (chronic), which form the bulk of our proteome. The negative feedback serves to tune the TCR signaling, such that the ambient antigenic stimulation is nullified intracellularly. Unfortunately, this critical machinery serves as a target for chronic viral, bacterial and parasitic infections (as well as tumors), which can evade a robust immune response, simply by allowing T cells to tune down their signaling to pathogen or malignancy derived antigens. As such, disrupting the tuning in such cases would allow the tolerant T cell to function again and deliver a robust effector response.
If a therapeutic can restore responsiveness to the tuned down T cell, even for a short time, they could combat the pathogen without any additional immunization. To that end, we have developed a sensitive HTS T cell based assay based on IL-2. This assay will be screened against the Molecular Libraries Small Molecule Repository (MLSMR) to find small molecules that could elicit this response.
NIH Chemical Genomics Center [NCGC]
NIH Molecular Libraries Probe Centers Network [MLPCN]
Assay Submitter (PI): Ron Schwartz, NIAID
4 microL (750 cells/well) of unstimulated transgenic mouse T cells (columns 1-3,5-48) are dispensed into Aurora LoBase, black clear-bottom 1536-well assay plates; column 4 receives an identical concentration of transgenic memory T cells as a non-tolerant control. Compounds are then transferred via Kalypsys pin tool equipped with 1536-pin array (10 nL slotted pins, V&P Scientific, San Diego, CA). Following addition of compound and a 60 minute incubation, 1 microL of bead stimulation solution ((0.04 micron Fluospheres (Life technologies, CA) coated with 10ug/ml each anti-CD3 and anti-CD4 (clones 2C11 and GK1.5, BD Biosciences, CA) and mixed with 1ug/ml anti-CD28 (clone PV-1, BD biosciences, CA)). columns 2-48) is added to stimulate the IL-2 response pathway; media is instead added to column 1 as an unstimulated control, while PMA/ionomycin (Sigma Aldrich, MO) is added to column 3 as a control for IL-2 tolerance bypass. The plates are then incubated at 37 degrees C for 18 hours. EGFP and DsRed signal are then detected using an Acumen eX3 Explorer fluorescent plate cytometer. All cells are dispensed in cell media containing EHAA (Quality Biologicals, MD), RPMI (Quality Biologicals, MD), Glutamine (Life Technologies, CA), Penicillin/Streptomycin (Quality Biologicals, MD), 2-ME (Sigma Aldrich, MO) and 10% FBS (Gemini Bioproducts, CA) .
On the technique in general: Quantitative high-throughput screening tests each substance at several concentrations.
Regarding `CN1CCN(CCOC(=O)C(O)(c2ccccc2)c2ccccc2)CC1`, the activation is inactive: 0.123%.
On to `CC(C)c1ccc(C(=O)NCC2(N3CCOCC3)CCCCC2)cc1`, for which the activation was inactive: -4.98%.
Take `COc1ccc(NC2CCN(C(=O)OC(C)(C)C)CC2)cc1`: the activation is inactive: 1.87%.
For the molecule `CCCCn1nnnc1C(c1cccc2ccccc12)N1CCC(n2c(=O)[nH]c3ccccc32)CC1` (centres undefined), the activation is inactive: 0.324%.
On to `O=[N+]([O-])c1cc([N+](=O)[O-])c(NCC2CCS(=O)(=O)C2)c([N+](=O)[O-])c1` (centres undefined), for which the activation was inactive: -5.52%.
For the molecule `O=C(NCC1(N2CCCCC2)CCCCC1)c1cccc(C(F)(F)F)c1`, the activation was inactive: -0.513%.
With `COc1cc(OC)c(C(=O)NCC2(N(C)C)CCCCC2)cc1OC`, the activation was inactive: 2.82%.
As to `O=C(NCC1(N2CCOCC2)CCCCC1)c1cc(F)c(F)cc1Cl`, the activation was inactive: 0.732%.
The result for `CCC(c1nnnn1C(C)(C)C)N1CCC(n2c(=O)[nH]c3ccccc32)CC1` (centres undefined) reads inactive: 1.3%; that for `CCN(CC)CCCNc1ccccc1[N+](=O)[O-].O=[N+]([O-])c1cc([N+](=O)[O-])c(O)c([N+](=O)[O-])c1`, inactive: 0.981%; that for `CCCCn1nnnc1C(c1ccnc2ccccc12)N1CCC(n2c(=O)[nH]c3ccccc32)CC1` (centres undefined), inactive: -0.129%.
The result for `CC(C)c1ccc(NC2CCN(C(=O)OC(C)(C)C)CC2)cc1` reads inactive: -0.633%; that for `CCCCn1nnnc1C(c1ccccc1OC(F)(F)F)N1CCC(n2c(=O)[nH]c3ccccc32)CC1` (centres undefined), inactive: -0.716%.
In the case of `COc1ccc(CN(CCCl)CCCl)cc1Cl`, the activation was inactive: -3.56%.
Turning to `O=[N+]([O-])c1cc([N+](=O)[O-])c(OC2CCCCC2O)c([N+](=O)[O-])c1` (centres undefined), the activation was inactive: -0.684%.
With `CN(C)c1cccc(C(=O)NCC2(N3CCCCC3)CCCCC2)c1`, the activation is inactive: -1.64%.
Then `O=[N+]([O-])c1cc([N+](=O)[O-])c(Nc2ccc(Cl)cc2)c([N+](=O)[O-])c1`, with inactive: -4.05%; and `COc1ccc(C(c2nnnn2C2CCCC2)N2CCC(n3c(=O)[nH]c4ccccc43)CC2)cc1` (centres undefined), with inactive: -0.365%; and `Cc1ccc(C(=O)NCC2(N(C)C)CCCCC2)o1`, with inactive: -1.88%.
In the case of `CCCOc1ccc(C(=O)NCC2(N(C)C)CCCCC2)cc1OC`, the activation is inactive: 1.82%.
On to `O=C(OC1CN2CCC1CC2)c1ccc([N+](=O)[O-])cc1` (centres undefined), for which the activation was inactive: -0.411%.
For the molecule `CN1CCC(Nc2cccc(F)c2)CC1`, the activation was inactive: 1.53%.
Turning to `COc1ccc2c(c1O)-c1c(O)c(OC)cc3c1[C@H](C2)[N+](C)(C)CC3.O=[N+]([O-])c1cc([N+](=O)[O-])c([O-])c([N+](=O)[O-])c1[O-]`, the activation was inactive: 1.05%.
In the case of `O=C(NCC1(N2CCCCC2)CCCCC1)c1cncc(Br)c1`, the activation is inactive: -2.98%.
On to `O=c1[nH]c2ccccc2n1C1CCN(C(c2cccs2)c2nnnn2C2CCCCC2)CC1` (centres undefined), for which the activation was inactive: -0.617%.
With `COc1ccc(C(=O)NCC2(N3CCOCC3)CCCCC2)cc1OC`, the activation was inactive: 0.7%.
Turning to `O=c1[nH]c2ccccc2n1C1CCN(C(c2ccnc3ccccc23)c2nnnn2C2CCCC2)CC1` (centres undefined), the activation was inactive: -0.287%.
As for `CCCCn1nnnc1C(c1ccccc1)N1CCC(n2c(=O)[nH]c3ccccc32)CC1` (centres undefined), the activation was inactive: 0.577%.
Regarding `COc1cc(C(=O)NCC2(N3CCOCC3)CCCCC2)cc(OC)c1C`, the activation is inactive: 0.773%.
Take `O=C(NCC1(N2CCOCC2)CCCCC1)c1cc(Br)ccc1Cl`: the activation was inactive: -0.442%.
Consider `CCc1cc(C(=O)NCC2(N3CCCCC3)CCCCC2)sc1C`, for which the activation is inactive: -1.47%.
Turning to `O=C(OC1CN2CCC1CC2)C1c2ccccc2C=Cc2ccccc21` (centres undefined), the activation was inactive: 0.0033%.
For the molecule `O=C(O)c1cccc(Nc2c([N+](=O)[O-])cc([N+](=O)[O-])cc2[N+](=O)[O-])c1`, the activation was inactive: 1.07%.
Turning to `O=c1[nH]c2ccccc2n1C1CCN(C(c2cccs2)c2nnnn2C2CCCC2)CC1` (centres undefined), the activation was inactive: 0.88%.
Turning to `CCCCn1nnnc1C(c1cccc(OC)c1OC)N1CCC(n2c(=O)[nH]c3ccccc32)CC1` (centres undefined), the activation was inactive: -0.0174%.
In the case of `CCOC(=O)N1CCC(Nc2ccc(C)cc2)CC1`, the activation is inactive: 0.721%.
Then `COc1cccc(C(c2nnnn2C(C)(C)C)N2CCC(n3c(=O)[nH]c4ccccc43)CC2)c1OC` (centres undefined), with inactive: 1.18%.
On to `N/C(=N\O)c1c(N)no[n+]1[O-]`, for which the activation was inactive: -0.446%.
Regarding `CCOC(=O)C(CC)C1=NC(C)(C)Cc2ccccc21.O=[N+]([O-])c1cc([N+](=O)[O-])c(O)c([N+](=O)[O-])c1` (centres undefined), the activation was inactive: -1.9%.
The result for `N#Cc1ccc(C(=O)NCC2(N3CCCCC3)CCCCC2)cc1` reads inactive: -0.304%; that for `CC(C)(C)OC(=O)N1CCC(N(C(=O)c2ccccc2)c2ccc(Cl)cc2)CC1`, inactive: -0.244%; that for `CC(C)(C)n1nnnc1C(c1cccc2ccccc12)N1CCC(n2c(=O)[nH]c3ccccc32)CC1` (centres undefined), inactive: -0.683%.
As to `CN(C)C1(CNC(=O)c2cccc(C#N)c2)CCCCC1`, the activation was inactive: -1.34%.
The result for `c1ccc(CN2CCC(Nc3ccccc3)CC2)cc1` reads inactive: -0.452%.
